From patent EP0385662B1, “Heterocycles with inhibitory activity of 5-lipoxygenase” (ZENECA LIMITED, priority 1989, dated 1990)
pIC50: −log10 of the molar value.

Biological target: T1, 5-LO (Homo sapiens, UniProt P09917)
T1 construct: incubating a test compound with heparinised human blood, prior to challenge with the calcium ionophore A23187; endogenous in cells; host or cells: leukocytes of heparinised human whole blood
T1 sequence (P09917 1-674): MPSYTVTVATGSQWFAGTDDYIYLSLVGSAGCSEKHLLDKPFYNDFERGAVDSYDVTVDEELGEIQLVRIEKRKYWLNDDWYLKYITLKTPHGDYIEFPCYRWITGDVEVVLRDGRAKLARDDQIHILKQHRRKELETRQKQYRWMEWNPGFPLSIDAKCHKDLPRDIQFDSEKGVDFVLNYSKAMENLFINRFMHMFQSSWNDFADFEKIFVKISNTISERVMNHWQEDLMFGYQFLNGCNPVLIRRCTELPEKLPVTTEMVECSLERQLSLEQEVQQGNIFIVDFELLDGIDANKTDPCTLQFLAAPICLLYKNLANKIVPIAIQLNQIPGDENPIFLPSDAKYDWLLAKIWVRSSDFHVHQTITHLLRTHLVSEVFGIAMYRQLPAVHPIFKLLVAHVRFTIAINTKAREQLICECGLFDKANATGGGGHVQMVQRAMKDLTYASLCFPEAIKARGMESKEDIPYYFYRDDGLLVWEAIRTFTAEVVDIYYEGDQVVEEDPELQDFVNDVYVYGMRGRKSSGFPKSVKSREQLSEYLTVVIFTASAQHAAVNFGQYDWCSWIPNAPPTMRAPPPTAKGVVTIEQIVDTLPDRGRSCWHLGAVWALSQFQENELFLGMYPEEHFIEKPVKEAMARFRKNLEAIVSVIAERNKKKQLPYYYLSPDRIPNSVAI
Assay: Test b): in vitro heparinised human blood challenged with calcium ionophore A23187, radioimmunoassay of LTB4
Format: cell-based
Conditions: A23187 challenge, read-out: IC50 against LTB4
Method: As stated previously, the heterocycles of the formula I are inhibitors of the enzyme 5-LO. […] This test provides a measure of the intrinsic inhibitory properties against soluble 5-LO in an extracellular environment. • b) An in vitro assay system involving incubating a test compound with heparinised human blood, prior to challenge with the calcium ionophore A23187 and then indirectly measuring the inhibitory effects on 5-LO by assaying the amount of L TB4 using the specific radioimmunoassay described by Carey and Forder (F. Carey and R.A. Forder, Brit. […] The effects of a test compound on the enzyme cyclooxygenase (which is involved in the alternative metabolic pathway for arachidonic acid and gives rise to prostaglandins, thromboxanes and related metabolites) may be measured at the same time using the specific radioimmunoassay for thromboxane B2(TxB2) described by Carey and Forder (see above). […] It permits the selectivity of the inhibitory effect on 5-LO or cyclooxygenase to be assessed. • c) An ex vivo assay system, which is a variation of test b) above, involving administration of a test compound (usually orally as the suspension produced when a solution of the test compound in dimethylsulphoxide is added to carboxymethylcellulose), blood collection, heparinisation, challenge with A23187 and radioimmunoassay of L TB4 and TxB2. […]

COC1(c2cccc(OCc3ccc4c(ccc(=O)n4C)c3)c2)CCOCC1 [4-[3-(1,2-dihydro-1-methyl-2-oxoquinolin-6-ylmethoxy)phenyl]-4-methoxytetrahydropyran]
pIC50: 7.52
